From patent US9643995B2, “Triterpene glycoside and triterpene compositions and methods of using same” (Research Foundation of the City University of New York, priority 2013, dated 2017)

Assays:
MDA-MB-453 = MDA-MB-453 (Yakes et al., 2002); cited from earlier work
MDA-MB-453 cells [1] = test: Apoptosis: caspase 3 activity; assay type: cell-based, human; conditions: actein 2 μg/ml, Herceptin 16 μg/ml, 48 h
Experimental: (§1) Actein synergizes with herceptin on apoptosis: To provide further evidence of an interaction with Her2, we tested the effect of actein (2 μg/ml) alone, or combined with the antibody to Her2 Herceptin (trastuzumab) (16 μg/ml), on measures of apoptosis, caspase 3 activity or DNA fragmentation, after treating MDA-MB-453 cells for 48 h. The results are as follows (fold relative to control): for caspase 3: DMSO (control): 1.0; actein: 1.29; Herceptin: 1.284; actein+Herceptin: 1.955 (FIG. 1B); for DNA fragmentation: DMSO (control) 1.0; actein: 0.89; Herceptin: 1.09; actein+Herceptin: 1.34 (p<0.01) (FIG. 3B). Thus, actein induces apoptosis and enhances the apoptotic activity of Herceptin.

MDA-MB-453 cells [2] = test: Apoptosis: DNA fragmentation; assay type: cell-based, human; conditions: actein 2 μg/ml, Herceptin 16 μg/ml, 48 h
Experimental: as §1

Substance: Herceptin: Anti-Her2 specific antibody [reference compound]
- sensitivity of cells to agent (MDA-MB-453): relatively resistant
- caspase 3 activity (MDA-MB-453 cells [1]): 1.284 fold relative to control
- DNA fragmentation (MDA-MB-453 cells [2]): 1.09 fold relative to control
